Legend:
[1] = target: APC (Homo sapiens, UniProt P04070); experiment: Inhibition constant assay (APC, Spectrozyme TH hydrolysis); conditions: for Ki: read-out: Ki:APC, 5 nM APC, Spectrozyme TH 100, 200 and 600 μM
[2] = tested on: thrombin generation; experiment: Tissue factor pathway to thrombin, no coagulation inhibitors (Example 9); conditions: 40 μM compound; protein C and TFPI absent; FIG. 8
[3] = tested on: thrombin generation; experiment: Tissue factor pathway to thrombin, TFPI present, factor VIII absent (Example 7); conditions: 40 μM compound, 2.5 nM TFPI present, FIG. 6
[4] = tested on: thrombin generation; experiment: Tissue factor pathway to thrombin, APC pathway present, factor VIII absent (Example 4); conditions: 40 μM compound, PC, Tm present, FIG. 3
[5] = tested on: thrombin generation; experiment: Tissue factor pathway to thrombin, reconstituted model, protein C pathway present (Example 3); conditions: 40 μM compound; 0.5 pM factor VIIa; PC and Tm present; FIG. 2
[6] = tested on: thrombin generation; experiment: Tissue factor pathway to thrombin, APC pathway and TFPI present, factor VIII absent (Example 8); conditions: 40 μM compound or 20 μM each, PC pathway and TFPI present, FIG. 7
[7] = target: factor Xa (Homo sapiens, UniProt P00742); experiment: Inhibition constant, factor Xa; conditions: read-out: Ki:Xa
[8] = target: IIa (Homo sapiens, UniProt P00734); experiment: Inhibition constant, IIa (thrombin); conditions: read-out: Ki:IIa

By UniProt entry, the sequences of proteins in these tests, tags left out. Residues count along the entry.
UniProt P04070, 43-197 partner limits assumed: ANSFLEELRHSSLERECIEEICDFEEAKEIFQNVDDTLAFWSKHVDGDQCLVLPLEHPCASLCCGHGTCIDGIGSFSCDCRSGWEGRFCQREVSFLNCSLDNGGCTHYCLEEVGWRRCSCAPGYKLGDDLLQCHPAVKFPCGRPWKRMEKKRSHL
UniProt P04070, 212-461 limits assumed: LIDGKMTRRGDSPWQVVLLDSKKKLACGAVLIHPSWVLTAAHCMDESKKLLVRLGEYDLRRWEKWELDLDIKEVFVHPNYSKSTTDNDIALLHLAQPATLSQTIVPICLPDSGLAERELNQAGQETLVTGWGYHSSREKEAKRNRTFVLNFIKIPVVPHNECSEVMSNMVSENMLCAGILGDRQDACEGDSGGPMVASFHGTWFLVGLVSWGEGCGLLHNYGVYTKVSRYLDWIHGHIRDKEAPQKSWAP
UniProt P00742, 41-179 partner limits assumed: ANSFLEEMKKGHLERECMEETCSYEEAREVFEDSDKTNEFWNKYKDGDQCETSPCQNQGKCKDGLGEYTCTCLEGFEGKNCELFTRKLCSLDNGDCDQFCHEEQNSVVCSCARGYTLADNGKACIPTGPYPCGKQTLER
UniProt P00742, 235-488 limits assumed: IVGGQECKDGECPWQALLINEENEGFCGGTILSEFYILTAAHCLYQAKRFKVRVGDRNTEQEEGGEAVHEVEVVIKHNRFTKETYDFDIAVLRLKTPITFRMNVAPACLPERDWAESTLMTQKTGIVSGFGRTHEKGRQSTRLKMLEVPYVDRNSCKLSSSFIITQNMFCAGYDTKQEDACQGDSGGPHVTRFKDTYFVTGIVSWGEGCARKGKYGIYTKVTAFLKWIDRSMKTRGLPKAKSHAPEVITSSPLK

SMILES: C[C@@H](O)[C@H](NC(=O)[C@H](CCCCN)NC(=O)[C@H](CCCCN)NC(=O)OCc1ccccc1)C(=O)N[C@@H](CCCNC(=N)N)CC(=O)Nc1ccc2c(S(=O)(=O)N[C@@H](CCCCNC(=O)OCc3ccccc3)C(=O)N[C@@H](CCCCNC(=O)OCc3ccccc3)C(=O)OCc3ccccc3)cccc2c1
- Ki [1]: 2.3 µM

SMILES: C[C@@H](O)[C@H](NC(=O)[C@H](CCCCN)NC(=O)[C@@H](N)CCCCN)C(=O)N[C@@H](CCCCNC(=N)N)C(=O)Nc1ccc2cc(S(=O)(=O)N[C@@H](CCCCNC(=O)OCc3ccccc3)C(=O)N[C@@H](CCCCNC(=O)OCc3ccccc3)C(=O)OCc3ccccc3)ccc2c1
- lag phase of thrombin generation [2]: decrease the lag phase of thrombin generation
- maximum rate of prothrombin activation [2]: increase the maximum rate of prothrombin activation
- compensation of absence of factor VIII, thrombin generation [3]: compensate for the absence of factor VIII
- time to reach explosive thrombin generation phase ([3]; vs control): faster
- compensation of absence of factor VIII, thrombin generation [4]: completely compensated
- maximum rate of thrombin generation [4]: significantly higher than that in control experiment or in the presence of compound 9
- onset of explosive phase of thrombin generation ([4]; vs control with factor VIII): earlier than in the control experiment
- effect on thrombin generation in presence of PC pathway [5]: completely compensates for the presence of PC pathway
- compensation of absence of factor VIII, thrombin generation [6]: completely compensated

SMILES: C[C@@H](O)[C@H](NC(=O)[C@H](CCCCNC(=O)OCc1ccccc1)NC(=O)[C@H](CCCCN)NC(=O)OCc1ccccc1)C(=O)N[C@@H](CCCCNC(=N)N)C(=O)Nc1ccc2c(S(=O)(=O)N[C@@H](CCCCNC(=O)OCc3ccccc3)C(=O)N[C@@H](CCCCNC(=O)OCc3ccccc3)C(=O)OCc3ccccc3)cccc2c1
- Ki [7]: 230 µM
- Ki [1]: 1.5 µM

SMILES: C[C@@H](O)[C@H](NC(=O)[C@H](CCCCN)NC(=O)[C@H](CCCCN)NC(=O)OCc1ccccc1)C(=O)N[C@@H](CCCCNC(=N)N)C(=O)Nc1ccc2cc(S(=O)(=O)N[C@@H](CCCCNC(=O)OCc3ccccc3)C(=O)N[C@@H](CCCCNC(=O)OCc3ccccc3)C(=O)OCc3ccccc3)ccc2c1
- Ki ratio for factor Xa/APC [1]: 570

SMILES: C[C@@H](O)[C@H](NC(=O)[C@H](CCCCN)NC(=O)[C@H](CCCCN)NC(=O)OCc1ccccc1)C(=O)N[C@H](CCCNC(=N)N)C(=O)Nc1ccc2c(S(=O)(=O)N[C@@H](CCCCNC(=O)OCc3ccccc3)C(=O)N[C@@H](CCCCNC(=O)OCc3ccccc3)C(=O)OCc3ccccc3)cccc2c1
- Ki [7]: 280 µM
- Ki [8]: > 5000 µM
- Ki [1]: 1.1 µM

SMILES: CCOC(=O)[C@H](CCCNC(=N)N)NC(=O)[C@H](CCC(N)=O)NS(=O)(=O)c1ccc2cc(NC(=O)[C@H](CCCCNC(=N)N)NC(=O)[C@H](CCCNC(=N)N)NC(=O)[C@H](CC(=O)OC)NC(=O)[C@H](CC(C)C)NC(=O)OC(C)(C)C)ccc2c1
- Ki [1]: 160 µM

— patent publication US6566493B1, “Peptidomimetics containing 6-peptidylamino-1-naphthalenesulfonamide moieties” (dated 2003)
